Experiment: Plasma PK of major maoto compounds by LC-MS/MS after oral administration of maoto
Type: in vivo
Details: rat plasma
Procedure: 1 (7:00-19:00). Rats were maintained and used for the experiments in accordance
2 with the Guidelines for the Care and Use of Laboratory Animals of Tsumura &
3 CO. All experimental procedures were carried out upon approval from the
4 Laboratory Animal Committee of Tsumura & CO.
8 administered to 16-h fasted rats (n=3). […]
14 and 4 g/10mL/kg) were determined by LC-MS/MS. Based on a literature search,
16 amygdalin, prunasin, scopoletin, l-ephedrine, d-pseudoephedrine,
1 Plasma PK data were analyzed by noncompartmental modeling using
2 Phoenix WinNonlin (version 6.3, Certara L.P., St. Louis, MO, USA) to determine
3 various PK constants including Cmax, tmax, t1/2, and AUC0–last. The t1/2 was divided
4 by loge2/ke, where ke is the rate constant of terminal elimination (at least three
5 data points on the descending linear limb). […]

Liquiritin apioside
AUClast (oral maoto 1 g/kg): 12.9 ng·h/mL | Cmax (oral maoto 1 g/kg): 3.07 ng/mL | Tmax (oral maoto 1 g/kg): 2.00 h | t1/2 (oral maoto 1 g/kg): 3.96 h | AUClast (oral maoto 2 g/kg): 31.7 ng·h/mL | Cmax (oral maoto 2 g/kg): 7.24 ng/mL | Tmax (oral maoto 2 g/kg): 1.00 h | t1/2 (oral maoto 2 g/kg): 2.62 h | AUClast (oral maoto 4 g/kg): 130 ng·h/mL | Cmax (oral maoto 4 g/kg): 169 ng/mL | t1/2 (oral maoto 4 g/kg): 3.85 h

Isoliquiritin apioside
AUClast (oral maoto 1 g/kg): 0.113 ng·h/mL | Cmax (oral maoto 1 g/kg): 0.355 ng/mL | Tmax (oral maoto 1 g/kg): 0.250 h | AUClast (oral maoto 2 g/kg): 3.16 ng·h/mL | Cmax (oral maoto 2 g/kg): 1.49 ng/mL | Tmax (oral maoto 2 g/kg): 1.00 h | AUClast (oral maoto 4 g/kg): 8.10 ng·h/mL | Cmax (oral maoto 4 g/kg): 9.08 ng/mL | Tmax (oral maoto 4 g/kg): 0.250 h | t1/2 (oral maoto 4 g/kg): 0.891 h
